Measurements taken from ChEMBL document CHEMBL4840338, “Cudraflavone C from Artocarpus hirsutus as a Promising Inhibitor of Pathogenic, Multidrug-Resistant S. aureus, Persisters, and Biofilms: A New Insight into a Rational Explanation of Traditional Wisdom” (J Nat Prod, 2021).

System: Staphylococcus aureus
Conditions: ATCC 29213, time 16-18 hrs

GENTAMICIN
MIC: 0.5 µg/mL
